Data reported in PubChem BioAssay AID1259415 (National Center for Advancing Translational Sciences (NCATS), 2018).
The entries are a selection whose mix differs from that of the whole data set. Inconclusive results are not listed. Active and inactive are the calls of the source. Rule as the data show it: active = activity change below about -60%; inconclusive = no clear call, values can overlap the other calls; inactive = above about -39%.
% is scaled to controls: 0 for no effect and ±100 for the full control effect.

Assay: qHTS Assay for inhibitors of the human cytomegalovirus (HCMV)
Conditions: HFF cells, HCMV-luciferase reporter, 72 h; at 57.5 µM; hits give low values
Text: NCGC Assay Overview: Infection with human cytomegalovirus (HCMV) continues to pose significant threats for pregnant women and immunocompromised hosts. HCMV causes serious morbidity and mortality in transplant recipients, and congenital HCMV is the leading infectious cause of mental retardation and deafness in children. In the 1990s, the annual costs associated with the disease burden of congenital CMV were estimated at around $2 billion. A HCMV vaccine is not available yet and HCMV therapies result in intolerable side effects and emergence of drug resistant viruses. […] Towards this goal we have developed and characterized a luciferase HCMV reporter that was initially used in 96 well plates and then optimized to 1536-well plates for utilization in screening of the MLSMR collection, the NGCG diversity collection and the NCGC Pharmaceutical Collection of approved and investigational drugs.
NCGC Assay Protocol Summary:
This is a cell-based assay for HCMV inhibition in HFFs cells. The screening used 2 compound doses and the HCMV-luciferase at MOI of 1 PFU/cell. Cells were treated and infected with HCMV. At 72 h post infection cell lysates were collected and luciferase activity was determined using the Glomax-Multi + Detection System (Promega, Madison, WI). Data were normalized to the controls for basal activity (buffer only) and known HCMV inhibitors Salinmoycin. […]
In the case of `CCC(=O)N(c1ccccc1)C1(COC)CCN(CCc2cccs2)CC1`, the activity change, negative = inhibition is reported as inactive: -7.67%.
In the case of `CCC(=O)N(c1ccccc1)C1(COC)CCN(CCn2nnn(CC)c2=O)CC1`, the activity change, negative = inhibition is reported as inactive: 1.55%.
